Here are results for one compound from ChEMBL document CHEMBL1138716, “Carbonic anhydrase inhibitors. Inhibition of the prokariotic beta and gamma-class enzymes from Archaea with sulfonamides” (Bioorg Med Chem Lett, 2004).

Experiment [1] addresses T1, Carbonic anhydrase (Methanobacterium thermoautotrophicum, UniProt Q50565).
T1 sequence (Q50565 whole entry): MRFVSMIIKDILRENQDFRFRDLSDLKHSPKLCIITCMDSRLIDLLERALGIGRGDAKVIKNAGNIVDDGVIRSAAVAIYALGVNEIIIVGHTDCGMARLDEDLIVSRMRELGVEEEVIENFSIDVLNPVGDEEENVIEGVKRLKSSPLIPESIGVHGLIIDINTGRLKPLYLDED

Experiment [2] deals with T2, Carbonic anhydrase (Methanosarcina thermophila, UniProt P40881).
T2 sequence (P40881 whole entry): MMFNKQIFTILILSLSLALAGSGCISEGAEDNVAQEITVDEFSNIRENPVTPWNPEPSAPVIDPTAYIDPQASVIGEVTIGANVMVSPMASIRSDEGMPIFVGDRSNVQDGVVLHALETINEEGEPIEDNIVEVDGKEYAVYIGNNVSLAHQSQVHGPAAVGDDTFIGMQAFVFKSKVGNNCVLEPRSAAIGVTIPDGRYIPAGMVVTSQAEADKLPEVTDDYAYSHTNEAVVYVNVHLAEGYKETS

For `Nc1cc(Cl)c(S(N)(=O)=O)cc1S(N)(=O)=O`, the figures for the Ki in experiment [1] and in experiment [2] were 62.1 µM and 0.61 µM, respectively.
